# Laboratory results reported in PubChem BioAssay AID2061166 (Soto Lab, Mitchell Center for Alzheimers Disease and …, 2025).
# Amino acid sequences for entries named in this document (tags omitted).
# UniProt P10636, whole entry, looked up: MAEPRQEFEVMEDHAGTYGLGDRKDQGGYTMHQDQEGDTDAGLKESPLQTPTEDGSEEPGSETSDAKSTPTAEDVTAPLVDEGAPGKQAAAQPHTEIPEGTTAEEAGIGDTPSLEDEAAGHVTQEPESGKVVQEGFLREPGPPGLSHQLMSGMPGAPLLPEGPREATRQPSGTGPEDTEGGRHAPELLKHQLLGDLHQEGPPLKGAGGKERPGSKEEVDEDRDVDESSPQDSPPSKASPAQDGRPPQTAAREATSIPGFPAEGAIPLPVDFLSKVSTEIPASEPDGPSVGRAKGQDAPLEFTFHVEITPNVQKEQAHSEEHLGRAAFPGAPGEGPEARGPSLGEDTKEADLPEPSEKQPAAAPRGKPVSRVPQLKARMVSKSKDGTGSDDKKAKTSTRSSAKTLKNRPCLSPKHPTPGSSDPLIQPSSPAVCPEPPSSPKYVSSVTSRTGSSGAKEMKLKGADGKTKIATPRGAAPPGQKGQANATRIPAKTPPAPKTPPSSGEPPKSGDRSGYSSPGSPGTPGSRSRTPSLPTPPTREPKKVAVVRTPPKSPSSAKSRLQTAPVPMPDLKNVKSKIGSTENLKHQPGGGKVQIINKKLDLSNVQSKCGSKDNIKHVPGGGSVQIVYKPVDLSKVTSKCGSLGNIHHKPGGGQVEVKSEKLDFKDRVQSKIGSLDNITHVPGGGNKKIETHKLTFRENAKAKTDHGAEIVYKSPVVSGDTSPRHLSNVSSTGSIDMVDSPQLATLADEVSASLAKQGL
# The entries are a selection whose mix differs from that of the whole data set. The source made the active and inactive calls.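 The calls were made as follows: active = mean tau seeding fluorescence area under 1% of vehicle, meaning inhibition above a set limit; inactive = the rest.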
# Target: Microtubule-associated protein tau (Homo sapiens) (UniProt P10636)
# Assay: blockers of AD brain-seeded tau fibril growth – biochemical, seed amplification, ThT fluorescence, primary screen (AID 2061166)
# Conditions: Recombinant tau seeded by AD brain, ThT fluorescence AUC; at 100 µM; stronger effect = higher value
structure (smiles),measurement,value
CC1=C2N=C(C=C3N=C(C(C)=C4[N-]C(C(CC(N)=O)C4(C)CCC(=O)NCC(C)OP(=O)([O-])OC4C(CO)OC(n5cnc6cc(C)c(C)cc65)C4O)C4(C)N=C1C(CCC(N)=O)C4(C)CC(N)=O)C(CCC(N)=O)C3(C)C)C(CCC(N)=O)C2(C)CC(N)=O.[C-]#N.[Co+3] (stereo unspecified),inhibition,inactive: -42.3%
